{
  "sequences": {"note": "The chains behind the UniProt entries cited, without tags or fusion partners.", "UniProt P33535, whole entry": "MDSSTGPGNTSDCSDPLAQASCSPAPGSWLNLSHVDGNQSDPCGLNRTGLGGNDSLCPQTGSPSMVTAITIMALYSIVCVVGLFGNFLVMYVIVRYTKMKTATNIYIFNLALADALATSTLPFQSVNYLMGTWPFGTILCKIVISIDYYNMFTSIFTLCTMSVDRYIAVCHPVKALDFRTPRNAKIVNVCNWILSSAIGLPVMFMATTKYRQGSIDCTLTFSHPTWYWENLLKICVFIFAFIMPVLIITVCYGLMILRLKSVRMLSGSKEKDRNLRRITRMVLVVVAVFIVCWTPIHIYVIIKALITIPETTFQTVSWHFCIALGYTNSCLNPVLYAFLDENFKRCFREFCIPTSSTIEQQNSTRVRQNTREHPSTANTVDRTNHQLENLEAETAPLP"},
  "source": "patent US20220233512A1",
  "about": "“INHIBITING AN IMMUNE RESPONSE MEDIATED BY ONE OR MORE OF TLR2, RAGE, CCR5, CXCR4 AND CD4” (priority 2020, published 2022)",
  "target": "T1, mu opiate receptor (MOR) (Rattus norvegicus, UniProt P33535)",
  "T1 construct": "from tissue; host or cells: striatum (membrane preparation)",
  "experiment": "MOR agonist activity using [35S]GTPgS binding assay in striatal membranes",
  "format": "biochemical",
  "conditions": "Series C-2 table",
  "data": [
    {"smiles": "O=S(=O)(c1ccc(F)cc1)N1CCOC12CCN(CC1CC1)CC2", "note": "[F-C0134]", "values": [
      {"measurement": "MOR agonist activity ([35S]GTPgS binding to Gao)", "setting": "0.1 μM compound as agonist", "value": 290.6, "unit": "%"},
      {"measurement": "MOR agonist activity ([35S]GTPgS binding to Gao)", "setting": "1 μM + BFNA", "value": 66.6, "unit": "%"},
      {"measurement": "MOR agonist activity ([35S]GTPgS binding to Gao)", "setting": "1 μM compound as agonist", "value": 378.9, "unit": "%"}
    ]}
  ]
}
